Assay outcomes deposited in PubChem by several laboratories.
PDI turbidity = blocks human protein disulfide isomerase activity. PDI insulin aggregation turbidity, A650, 90 min. AID 588391. P07237. inhibition, % at 10 µM. 0.052% of 350,000 active;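 active means mean inhibition across replicates of 30% or more, whatever share of single replicates reach that level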
UUG fidelity = yeast start codon fidelity modulation; AID 602363; activity score, % at 18.7 µM; S. cerevisiae UUG-firefly luciferase reporter, luminescence/redox ratio; 0.13% of 350,000 active;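 active means replicate mean at a twofold rise or more, about +100% in these data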;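 further: firefly luciferase made from a UUG start codon reports start codon fidelity; reporter light over untreated wells divided by growth signal over untreated wells; some hits fall short of that in this replicate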
SMARCA2 activ = increases SMARCA2 function in MMTV reporter cells; MG213 cells, MMTV-luciferase reporter, dexamethasone, overnight; 1% of 370,000 active; activation, % at 9.1 µM; AID 652017; in the data active means activation above about 7.8%;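 further: 0% = vehicle wells and 100% = reference activator wells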
ERp5 block = blocks human ERp5 reductase activity on insulin | Q15084 | ERp5 insulin aggregation, absorbance 650 nm, 90 min | inhibition, % at 9.99 µM | 0.05% of 350,000 active | AID 651711;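 active means mean replicate inhibition above about 25%, with every replicate also reaching it, limit read from the data, passing the limit was not always enough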
GSIS activator = primary screen for activators of insulin secretion dependent on glucose, INS-1E cells, GLuc reporter luminescence | INS-1E GLuc reporter insulin secretion, 2-3 h | activation, % at 16.6 µM | 0.61% of 370,000 active;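 active means lowest replicate activation of at least 40%, so every replicate reaches that level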;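 further: 0% = median of neutral control wells and 100% = median of IBMX positive control wells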
NR1D1 modulator = modulates human Rev-erb alpha binding to DNA. P20393. Rev-erbα–FITC-DNA binding, fluorescence polarization, 90 min. activity, % at 10 µM. 0.79% of 370,000 active. AID 1259318;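 active means activity above about 14%, limit read from the data; passing the limit was not always enough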;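 further: 0% = DMSO wells with 35 nM protein and 100% = DMSO wells with 750 nM protein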
Active calls of the source: *; / = not tested or not shown. The list is not random: actives were taken first. Their share in the collection is about 2.1%.

cpd | ERp5 block | SMARCA2 activ | NR1D1 modulator | GSIS activator | mol | PDI turbidity | UUG fidelity
1 | 0 | / | / | 28 | C[C@H](CO)N1C[C@H](C)[C@H](CN(C)C(=O)[C@@H]2CCCN2C)OCc2ccccc2-c2c(n(C)c3ccccc23)C1=O | / | /
2 | / | 0 | -4 | / | Cc1cc2c(n1-c1ccc(Cl)cc1)CC(C)(C)CC2=O | -11 | -10
3 | / | 7.9* | 2 | / | COc1ccc(-n2c(C)cc(=O)c3c2CC(C)(C)CC3=O)cc1 | 5 | -10
4 | 6 | -2 | 0 | 41* | Cc1c(OCC(=O)NCc2ccccn2)ccc2c3c(c(=O)oc12)CCCC3 | 10 | -11
5 | / | 3 | 4 | 112* | Oc1ccccc1-c1cc(C(F)(F)C(F)F)nc(-c2ccccc2)n1 | 3 | -10
6 | 6 | / | / | 6 | Cc1noc(C)c1NC(=O)Nc1ccc2c(c1)C(=O)N([C@H](C)CO)C[C@H](C)[C@@H](CN(C)CC1CC1)OCCCC[C@@H](C)O2 | / | /
7 | 6 | 2 | -8 | 76* | N/C(=N/O)c1nc(N2CCCC2)nc(N2CCCC2)n1 | -3 | -24
8 | 1 | 0 | 2 | 56* | Fc1ccc(-c2csc3nnc(SCc4cccnc4)n23)cc1 | 3 | -17
9 | 1 | 2 | 0 | 29 | c1ccc(-c2csc3nnc(SCc4ccc5c(c4)OCO5)n23)cc1 | / | -14
10 | -6 | / | / | 21 | COc1ccc(NC(=O)N(C)C[C@H]2Oc3ccc(NC(=O)CCCCCC(=O)Nc4ccccc4N)cc3CC(=O)N([C@@H](C)CO)C[C@H]2C)cc1 | / | 6
11 | -3 | / | / | -36 | CO[C@@H]1CN(C)C(=O)c2ccc(NS(=O)(=O)c3cccc(F)c3)cc2OC[C@H](C)N(Cc2cc(F)ccc2F)C[C@H]1C | / | -3
12 | 4 | 11* | -5 | 5 | O=C(NN=C1CCC(=NNC(=O)c2ccccn2)CC1)c1ccccn1 | -3 | /
13 | 1 | -2 | 0 | 470* | NC1=NC[C@H](Cc2ccccc2)N1CCCCC1CCCCC1 | -6 | -8
14 | -7 | -3 | -2 | / | NC1=NC[C@H](Cc2ccc(O)cc2)N1CCCCC1CCCCC1 | 6 | 1
15 | 4 | / | / | 0 | C[C@@H]1CCCCO[C@@H](CN(C)C(=O)NC2CCCCC2)[C@@H](C)CN([C@H](C)CO)C(=O)c2cc(NC(=O)C3CCCCC3)ccc2O1 | / | 1
16 | 2 | 7.9* | -3 | / | Cc1cc(-c2n[nH]c(=S)n2-c2ccccc2)nn1C | 5 | /
17 | / | 4 | -3 | / | Cc1ccc(-n2c(-c3cc(C)n(C)n3)n[nH]c2=S)cc1 | -2 | -27
18 | / | / | / | 5 | COc1ccccc1-c1cnc2c(c1)C(=O)N([C@@H](C)CO)C[C@H](C)[C@@H](CN(C)CC1CCOCC1)O2 | / | /
19 | / | -2 | 2 | 110* | CCS(=O)(=O)Nc1ccc(-c2cc(-c3ccccc3)c3cc(C)ccc3n2)cc1 | -2 | /
20 | 4 | -2 | 0 | -2 | Cc1ccc2nc(-c3ccc(NS(C)(=O)=O)cc3)cc(-c3ccccc3)c2c1 | 1 | -6
21 | -1 | 7.9* | 3 | / | c1ccc(Cn2c3ccccc3c3nnc(SCCN4CCCCC4)nc32)cc1 | 2 | 0
22 | / | 3 | -10 | 140* | CSc1nnc2c3cc(C)ccc3n(Cc3ccccc3)c2n1 | 0 | /
23 | 2 | 1 | 1 | -6 | CCn1c2ccc(C)cc2c2nnc(SCCN3CCCCC3)nc21 | -17 | -9
24 | 3 | -7 | 0 | 243* | Cc1c(P(=S)(c2ccccc2)c2ccccc2)[n+]2ccccc2n1C/C=C/c1ccccc1 | 2 | -14
25 | / | -2 | 0 | / | CC(O)c1nc2ccccc2n1C/C=C/c1ccccc1 (stereo not drawn) | 13 | -10
26 | 3 | 4 | 3 | 55* | CCn1nc(C)c(NC(=O)c2cnn3c(C(F)F)cc(-c4ccccc4)nc23)c1C | -11 | /
27 | 1 | / | / | -2 | C[C@H]1CN([C@@H](C)CO)C(=O)c2cccc(NC(=O)c3ccc(-c4nccs4)cc3)c2O[C@@H]1CN(C)S(=O)(=O)c1cn(C)cn1 | / | 3
28 | 2 | -2 | -1 | 65* | Nc1ncnc(NC2CCS(=O)(=O)C2)c1[N+](=O)[O-] (stereo not drawn) | -2 | -18
29 | -1 | / | / | / | O=C(NCc1ccccc1)[C@@]1(CCS(=O)(=O)c2ccccc2)COC(c2ccc(OCCCO)cc2)=N1 | / | 8
30 | / | -1 | -1 | 117* | COc1cc(/C=N/NC(=S)NCc2ccccc2)ccc1OCC#N | -11 | /
31 | / | 4 | -4 | 21 | Cc1ccc(NC(=O)c2ccccc2)cc1 | -3 | 3
32 | 6 | -8 | 5 | 155* | Cc1ccc(NC(=O)C2=C(c3ccccc3)S(=O)(=O)CCS2(=O)=O)cc1 | -3 | /
33 | -3 | -1 | -1 | 41* | O=C(N/N=C/c1ccc(O)cc1O)NC12CC3CC(CC(C3)C1)C2 | 5 | -6
34 | 8 | -5 | 8 | / | O=C(N/N=C/c1cc([N+](=O)[O-])ccc1O)NC12CC3CC(CC(C3)C1)C2 | 20 | /
35 | -3 | 2 | 5 | 48* | CCN(C(=O)CSc1ncccn1)c1cccc2ccccc12 | -1 | -4
36 | / | / | / | 0 | C[C@@H]1CN([C@H](C)CO)C(=O)c2cc(-c3cccc(F)c3)cnc2O[C@H]1CN(C)Cc1cccc(F)c1 | / | -17
37 | / | 7.8* | 3 | / | CCc1ccc(-c2ccc(C(=O)O)cc2)nc1 | -3 | -20
38 | -5 | / | / | / | COc1cc(COC(C)=O)ccc1OC(C)=O | / | /
39 | -10 | 7.9* | -2 | -1 | CC1(C)CC(=Cc2ccccc2[N+](=O)[O-])C(=O)c2ccccc21 | 2 | -8
40 | 2 | -6 | -5 | -28 | O=C1C(=Cc2ccccc2[N+](=O)[O-])Cc2ccccc21 | -7 | -19
41 | / | 7.8* | 0 | / | c1ccc(-c2cn3c(n2)SCC3)cc1 | 4 | -23
42 | 0 | / | / | 11 | C[C@H]1CN([C@@H](C)CO)C(=O)Cc2cc(NC(=O)Cn3cnnn3)ccc2O[C@@H]1CN(C)Cc1ccc2c(c1)OCO2 | / | -9
43 | -2 | / | / | 13 | O=C(C[C@H]1CC[C@@H]2[C@H](COC[C@@H](O)CN2S(=O)(=O)c2ccc(F)cc2)O1)N[C@@H]1CCN(Cc2ccccc2)C1 | / | -1
44 | / | -10 | -1 | -29 | CC1(C)CC(=O)C2=C(C1)OC1=C(C(=O)CC(C)(C)C1)C2c1ccc(O)cc1O | 77* | /
45 | -13 | -5 | -3 | -4 | CC1(C)CC(=O)C2=C(C1)OC1=C(C(=O)CC(C)(C)C1)C2c1ccc(O)c([N+](=O)[O-])c1 | -4 | /
46 | 6 | / | / | -9 | CO[C@H]1CN(C)C(=O)c2cc(NC(=O)Cc3ccccc3)ccc2OC[C@H](C)N(C(C)=O)C[C@@H]1C | / | /
47 | 2 | -1 | -3 | 47* | O=C1CCc2cc(S(=O)(=O)N3CCN(c4ccc(F)cc4)CC3)cc3c2N1CC3 | 1 | /
48 | / | -1 | -10 | 51* | Cn1c(=O)c(=O)n(C)c2cc(S(=O)(=O)N3CCN(c4ccc(F)cc4)CC3)ccc21 | 1 | -33
49 | / | 4 | -7 | / | Cn1c(=O)c2cc(S(=O)(=O)N3CCN(c4ccc(F)cc4)CC3)ccc2n(C)c1=O | / | /

Single records (already shown).
Entry for CO[C@@H]1CN(C)C(=O)c2ccc(NS(=O)(=O)c3cccc(F)c3)cc2OC[C@H](C)N(Cc2cc(F)ccc2F)C[C@H]1C : ERp5 block: -3; SMARCA2 activ: /; NR1D1 modulator: /; GSIS activator: -36; PDI turbidity: /; UUG fidelity: -3
Entry for COc1cc(COC(C)=O)ccc1OC(C)=O : ERp5 block: -5; SMARCA2 activ: /; NR1D1 modulator: /; GSIS activator: /; PDI turbidity: /; UUG fidelity: /

Entries listed so far printed as active in PDI turbidity.
cpd | ERp5 block | SMARCA2 activ | NR1D1 modulator | GSIS activator | mol | PDI turbidity | UUG fidelity
44 | / | -10 | -1 | -29 | CC1(C)CC(=O)C2=C(C1)OC1=C(C(=O)CC(C)(C)C1)C2c1ccc(O)cc1O | 77* | /
